Test results taken from patent US12295937B2, “Psychoactive medicines and their use for treating psychiatric and neurological conditions and disorders” (Transcend Therapeutics, Inc., priority 2021, dated 2025).

Tested on: 168 GPCRs
Test: β-arrestin GPCR screen (PathHunter / GPCRmax), agonist mode
Assay type: cell-based
Conditions: 1 and 10 micromolar (b480 prints mM)

CNC(C)C(=O)c1ccc2c(c1)OCO2 (centres unmarked) [Methylone, 3,4-methylenedioxy-N-methylcathinone]
Agonist activity at 168 GPCRs (criterion >30% activity): no significant agonist activity detected | Agonist activity at 168 GPCRs (criterion >30% activity) (listed as methylone): did not meet criteria for agonist or antagonist activity at any of the 168 GPCRs tested
